The experiment deals with human Vγ2Vδ2 type T cells. Description: Proliferation of Vγ2Vδ2 type T cells in treated peripheral blood mononuclear cells (ratio in CD3 cells). In kind it is cell-based. To be noted: interleukin-2 10 U/ml solely (comparative treatment), day 11, volunteer G. As for the experimental part: After 12 days, the cells were collected.
10 ml of the peripheral blood collected from a healthy volunteer G was subjected to Ficoll-Paque specific gravity centrifugation to purify the peripheral blood mononuclear cells and they were suspended in a Yssel's medium. The cells were apportioned into a 24-hole plate so that the number of the cells becomes a concentration of 2.5 million/1.5 ml/hole, and then, according to the above-mentioned method, treatments 1 to 5 were conducted as shown in Table 1. Among them, treatment 1 is a treatment using only a culture medium and treatment 2 solely uses interleukin-2, and both treatments are for comparison. […] On the day 11 after conducting the treatment, a ratio of Vγ2Vδ2 type T cells in existing CD3 cells was calculated.

With “Interleukin-2: cofactor added at 10 U/ml; used solely in comparative treatment 2”, the “Vγ2Vδ2 type T cells/CD3 cells” value was 6.9%.

The values are drawn from US7094557B2, “2-Methyl-3-butenyl-1-pyrophosphoric acid salt and agent for treating lymphocytes” (Chugai Seiyaku Kabushiki Kaisha, priority 1999, dated 2006).
